Bioassay records as filed in PubChem BioAssay.
Shown are actives, neighbours in structure and some others; about 3.7% of the full set was active somewhere.
A549 viability: A549 cytotoxicity, counter-screen for Nrf2 inhibitors. A549 ARE-Fluc cells, CellTiter-Fluor viability, 18-24 h. Potency, µM (top dose mostly 46 µM), for the others: at the top dose activity change, negative = cytotoxicity, usual class: inhibitors. 390,000 compounds, 0.16% hits; note: potency is the fitted concentration of half-maximal effect; % is set by controls: 0 for no effect and ±100 for the full control effect
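A549 ARE_Fluc cells in 5% FBS OPTI-MEM were exposed to compounds in concentration-response for 18-24 h at 37 deg C. Viability was read by CellTiter-Fluor fluorescence (Ex 405/Em 525) after 30 min, before the luciferase read.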
TCR act: activators of T cell receptors; primary human leukocytes, anti-CD3, IL-2 HTRF, 48 h; Potency, µM (highest dose often 9.22 µM), without a hit: at the highest dose activation of IL-2 secretion, hits mostly activators; 330,000 tested, under 10 active; AID 504894; note: % of control where 0% means no effect
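Primary human leukocytes receive a-CD3 beads and test compound and are incubated 48 hr. Secreted IL-2 is then assayed by HTRF, measuring 665nm acceptor emission after 320nm excitation of the europium donor.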
miR-21 reporter: raises the signal of a miR-21 reporter | HeLa miR-21 FLuc reporter, luciferase, 48 h | Potency, µM (doses to about 38.3 µM), for the others: at the highest dose reporter change, positive = more light | 340,000 tested, under 10 active | AID 2288; active = well fitted rising curve with a large enough effect; inconclusive = small, poorly fitted or top-dose-only effect; inactive = no such curve, though single readings can be large or run the other way;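 also: % of control where 0% means no effect; miR-21 action dims this reporter so a rising signal means less miR-21 action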
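Using DMEM plus 10% FBS, HeLa miR-21-FLuc cells are incubated with test compounds (final up to about 40uM) for 48 hours; firefly luciferase signal is then imaged following reagent-mediated lysis.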
Nrf2 block: Nrf2 pathway inhibition. A549 ARE-Fluc reporter, luciferase luminescence, 18-24 h. Potency, µM (top dose mostly 46 µM), for the others: at the highest dose activity change, negative = inhibition, usual class: inhibitors. 360,000 compounds, 2.1% hits. AID 504444; note: potency is the fitted concentration of half-maximal effect; % is set by controls: 0 for no effect and ±100 for the full control effect; nearly all actives have a fitted effect of over 60% in size
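A549 ARE_Fluc cells (5000/well, 5% FBS OPTI-MEM) pre-incubated 2 h, then treated with compounds 18-24 h at 37C/5% CO2 in concentration-response. CellTiter-Fluor viability read first; BugLite luciferase luminescence after 15 min at room temperature gives Nrf2 activity.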
ClpP mod: qHTS Assay for Activators of ClpP. 340,000 compounds, 1.9% hits. AID 651965, 2013. purified B. subtilis ClpP, FRET peptide cleavage, 20 min. ATP-dependent Clp protease proteolytic subunit (Bacillus subtilis (strain 168)), P80244. Potency, µM (series often up to 57.5 µM), inactives show at the highest dose activity change, negative = active; active = well fitted falling curve with a large enough effect; inconclusive = small, poorly fitted or top-dose-only effect; inactive = no such curve, though single readings can be large or run the other way; note: potency is the fitted concentration of half-maximal effect; the source files actives as falling curves though it sought activators and does not explain the sign; nearly all actives have a fitted effect of over 65% in size
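ClpP 10 microg/mL final, pH 8 Tris/KCl buffer with BSA, glycerol, Tween-20; compound pinned in; FRET-FV substrate; RT 20 min; Ex320/Em430; ΔFRET vs ADEP 5.8 microM, DMSO, no enzyme.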
Nrf2 activator: activates Nrf2 signaling; AID 624171; Potency, µM (top dose mostly 46.1 µM), inactives show at the top dose activation, hits mostly activators; 410,000 compounds, 0.31% hits; AREc32 ARE-luciferase reporter (MCF7-derived line), luminescence, 24 h; note: potency is the fitted concentration of half-maximal effect; % of control where 0% means no effect; nearly all actives have a fitted effect of over 65% in size
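Luminescent ARE reporter assay in AREc32_Fluc cells: overnight plating at 37 deg C, 24 hr compound incubation, Steady-Glo added, 30 min RT before reading.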
Starred values were filed as active, the others as inactive; [ ] = remark or other dose. Unless noted, calls come from the whole dose curve; as a rule, active = well fitted curve in the direction sought with a large enough effect; inconclusive = small, poorly fitted or top-dose-only effect, or another doubt; inactive = no such curve, though single readings can be large; an effect the other way counts as inactive or inconclusive.

Results for OC(COc1ccc(OCC(O)CN2CCCCCC2)cc1)CN1CCCCCC1 (configuration not stated) ?
A549 viability: 2.6µM*; TCR act: -2%; miR-21 reporter: -17%; ClpP mod: -3%; Nrf2 activator: -1%

What do the screens show for `O=C(COc1ccc(F)cc1Cl)NC1CCCCCC1`?
A549 viability: 17%; TCR act: 8%; Nrf2 block: inconclusive; ClpP mod: -3%; Nrf2 activator: 5%

What do the screens show for `FC(F)(F)c1ccccc1NC(=S)N1CCN(Cc2ccc3c(c2)OCO3)CC1`?
A549 viability: -2%; TCR act: 6%; miR-21 reporter: 19%; Nrf2 block: 18µM*; ClpP mod: 5%; Nrf2 activator: 0%

What do the screens show for `C=C1NN(CC#N)C(=O)N1c1ccc(OCc2ccccc2)cc1`?
ClpP mod: 0%

What do the screens show for `O=c1cc(/C=C/c2ccccc2)oc2c1ccc1ccccc12`?
A549 viability: -9%; TCR act: -3%[46.1 µM]; miR-21 reporter: -4%; Nrf2 block: inconclusive; ClpP mod: 28µM*; Nrf2 activator: 1%

What do the screens show for `CCCc1nc2oc(C(=O)OCC)c(N)c2c2c1COC(C)(C)C2`?
A549 viability: -2%; TCR act: -3%; miR-21 reporter: -5%; Nrf2 block: 9%; ClpP mod: 14µM*; Nrf2 activator: 0%

How did CCOC(=O)c1sc2nc(C)c3c(c2c1N)CC(C)(C)OC3 do in these assays?
A549 viability: 4%; TCR act: 3%; miR-21 reporter: 2%; Nrf2 block: 24%; ClpP mod: 28µM*; Nrf2 activator: -1%

What do the screens show for `CCCc1nc2sc(C(=O)OCC)c(N)c2c2c1COC(C)(C)C2`?
A549 viability: -1%; TCR act: 2%; miR-21 reporter: -3%; Nrf2 block: 4%; ClpP mod: 259%; Nrf2 activator: 0%

What do the screens show for `CCOC(=O)c1oc2nc(C(C)C)c3c(c2c1N)CC(C)(C)OC3`?
A549 viability: -2%; TCR act: -6%; miR-21 reporter: -6%; Nrf2 block: -13%; ClpP mod: inconclusive; Nrf2 activator: 0%

How did CC(=O)N(Cc1cccnc1)c1cccc(-c2nc3ccccc3s2)c1 do in these assays?
A549 viability: 1%; TCR act: 9%; miR-21 reporter: 1%; Nrf2 block: inconclusive; ClpP mod: 14µM*; Nrf2 activator: 4%

Next section; it opens with the 3 that closed the last part.
What do the screens show for `CCCc1nc2sc(C(=O)OCC)c(N)c2c2c1COC(C)(C)C2`?
A549 viability: -1%; TCR act: 2%; miR-21 reporter: -3%; Nrf2 block: 4%; ClpP mod: 259%; Nrf2 activator: 0%

What do the screens show for `CCOC(=O)c1oc2nc(C(C)C)c3c(c2c1N)CC(C)(C)OC3`?
A549 viability: -2%; TCR act: -6%; miR-21 reporter: -6%; Nrf2 block: -13%; ClpP mod: inconclusive; Nrf2 activator: 0%

How did CC(=O)N(Cc1cccnc1)c1cccc(-c2nc3ccccc3s2)c1 do in these assays?
A549 viability: 1%; TCR act: 9%; miR-21 reporter: 1%; Nrf2 block: inconclusive; ClpP mod: 14µM*; Nrf2 activator: 4%

Results for CC(=O)NC(c1ccc(C)cc1)c1cc([N+](=O)[O-])c2cccnc2c1O (configuration not stated) ?
A549 viability: inconclusive; TCR act: 0%; miR-21 reporter: 11%; Nrf2 block: 12µM*; Nrf2 activator: 0%

Results for O=C(NC(c1ccc(Cl)cc1)c1cc(Cl)c2cccnc2c1O)c1cccnc1 (configuration not stated) ?
A549 viability: inconclusive; TCR act: 3%[46.1 µM]; miR-21 reporter: 11%; Nrf2 block: 10µM*; ClpP mod: 1%; Nrf2 activator: 3%

How did CCCC(=O)NC(c1ccco1)c1cc([N+](=O)[O-])c2cccnc2c1O (configuration not stated) do in these assays?
A549 viability: inconclusive; TCR act: -5%; miR-21 reporter: 12%; Nrf2 block: inconclusive; Nrf2 activator: 5%

What do the screens show for `COc1ccc(C(NC(C)=O)c2cc(Cl)c3cccnc3c2O)cc1` (configuration not stated)?
A549 viability: -12%; TCR act: -6%; miR-21 reporter: 22%; Nrf2 block: inconclusive; ClpP mod: -2%; Nrf2 activator: 0%

Results for CCC(=O)NC(c1ccc(C)cc1)c1cc([N+](=O)[O-])c2cccnc2c1O (configuration not stated) ?
A549 viability: -19%; TCR act: 0%[46.1 µM]; miR-21 reporter: -2%; Nrf2 block: 23µM*; ClpP mod: -3%; Nrf2 activator: 0%

How did CC(=O)NC(c1ccccc1)c1cc(Cl)c2cccnc2c1O (configuration not stated) do in these assays?
A549 viability: inconclusive; TCR act: -3%; miR-21 reporter: 20%; Nrf2 block: 18µM*; Nrf2 activator: 3%

Results for CCc1ccc(NC(=O)Cn2c(=O)n(Cc3nc(-c4ccccc4)no3)c(=O)c3cc4c(cc32)OCO4)cc1 ?
A549 viability: 1%; miR-21 reporter: -1%; Nrf2 block: 15%; ClpP mod: -17%; Nrf2 activator: 0%

How did Cc1ccc(NC(=O)CCSc2nc(-c3ccco3)cc(C(F)(F)F)n2)cc1F do in these assays?
A549 viability: -3%; miR-21 reporter: -5%; Nrf2 block: 10µM*; ClpP mod: -22%; Nrf2 activator: -1%

What do the screens show for `Cc1cc(NC(=O)CCCSc2nc(-c3ccco3)cc(C(F)(F)F)n2)n(-c2ccccc2)n1`?
A549 viability: -17%; TCR act: -7%[46.1 µM]; miR-21 reporter: 7%; Nrf2 block: 26µM*; ClpP mod: -1%; Nrf2 activator: 3%

What do the screens show for `O=C(CCSc1nc(-c2ccco2)cc(C(F)(F)F)n1)Nc1cccc(O)c1`?
A549 viability: 3%; miR-21 reporter: 10%; Nrf2 block: 5%; ClpP mod: -4%; Nrf2 activator: 1%

What do the screens show for `Cc1cc(NC(=O)CSc2nc(-c3ccco3)cc(C(F)(F)F)n2)n(-c2ccccc2)n1`?
A549 viability: inconclusive; TCR act: 3%; miR-21 reporter: 14%; Nrf2 block: inconclusive; ClpP mod: 2%; Nrf2 activator: -1%

How did Cc1cc(NC(=O)c2oc3c(c2C)-c2[nH]ncc2CC3)ccc1Br do in these assays?
A549 viability: 2%; miR-21 reporter: -3%; Nrf2 block: inconclusive; ClpP mod: inconclusive; Nrf2 activator: 9%

What do the screens show for `c1ccc(-c2noc(-c3cccc4ccccc34)n2)cc1`?
A549 viability: 11%; TCR act: -1%; miR-21 reporter: -53%; Nrf2 block: inconclusive; ClpP mod: 28µM*; Nrf2 activator: 1.6µM*

How did Cc1c(-c2nc(-c3ccncc3)no2)cccc1[N+](=O)[O-] do in these assays?
A549 viability: 13%; TCR act: 0%; miR-21 reporter: -18%; Nrf2 block: 12%; ClpP mod: -4%; Nrf2 activator: 11µM*

Results for O=[N+]([O-])c1cc(-c2nc(-c3ccncc3)no2)cc([N+](=O)[O-])c1 ?
A549 viability: -2%; TCR act: -6%[46.1 µM]; miR-21 reporter: 0%; Nrf2 block: inconclusive; ClpP mod: 1%; Nrf2 activator: 3%
